Test [1] deals with T1, LC132 receptor (Rattus norvegicus, UniProt P35370). Particulars: read-out: inhibitory constant (Ki), inhibition of [125I]Tyr14-orphanin binding; cited from earlier work.
The target in test [2] is T1, LC132 receptor. Briefly: cell-based.

Sequences of proteins named here, by UniProt entry; tags and fusion partners are left off. A change or cut given only in a name is not applied to a line headed by its entry.
UniProt P35370: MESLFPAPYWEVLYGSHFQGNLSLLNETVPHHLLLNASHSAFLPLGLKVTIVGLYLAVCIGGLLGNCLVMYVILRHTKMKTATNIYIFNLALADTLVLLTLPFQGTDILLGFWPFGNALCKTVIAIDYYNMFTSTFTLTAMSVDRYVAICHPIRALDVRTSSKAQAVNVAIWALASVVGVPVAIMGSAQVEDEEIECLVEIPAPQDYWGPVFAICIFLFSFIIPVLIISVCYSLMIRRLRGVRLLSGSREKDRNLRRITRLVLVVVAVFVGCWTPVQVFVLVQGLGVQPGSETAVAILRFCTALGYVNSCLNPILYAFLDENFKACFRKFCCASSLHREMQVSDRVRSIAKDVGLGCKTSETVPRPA

As a reminder, the Ki is a measure of affinity in units of concentration, obtained from inhibition or displacement. What is called EC50 is the concentration that produces a half-maximal response. A lower EC50 goes with greater potency. With `CC(C)C[C@H](NC(=O)[C@H](CCCCN)NC(=O)[C@H](CCCN=C(N)N)NC(=O)[C@H](C)NC(=O)[C@H](CO)NC(=O)[C@H](CCCCN)NC(=O)[C@H](CCCN=C(N)N)NC(=O)[C@H](C)NC(=O)CNC(=O)[C@@H](NC(=O)[C@H](Cc1ccccc1)NC(=O)CNC(=O)CNC(=O)[C@@H](N)Cc1ccccc1)[C@@H](C)O)C(=O)N[C@@H](C)C(=O)N[C@@H](CC(N)=O)C(=O)N[C@@H](CCC(N)=O)C(=O)O` [OFQ, F-G-G-F-T-G-A-R-K-S-A-R-K-L-A-N-Q], the Ki in test [1] is 0.19 ± 0.02 nM. For the same molecule, the EC50 in test [2] was found to be 1.05 ± 0.21 nM. Besides, the Emax at 0.1 µM in test [2] (CHO, read-out: maximal effect, inhibition of forskolin-stimulated cAMP accumulation) is ~80%.

Source of the values: US20020082213A1 (priority 1996, published 2002).
